{"source": "paper PMC12021451", "about": "(Planta Medica, 2025)", "assay": "blood-to-plasma concentration ratio", "type": "in vitro ADME, human", "details": "range of 4 to 1000 ng/mL", "data": [{"substance": "Retrorsine", "values": [{"measurement": "Effect of the compound concentration on the Rb value", "value": "no concentration dependency was observed"}]}]}
